Measurements from ChEMBL document CHEMBL6153068, “Novel N-(3-(1-(4-sulfamoylphenyl)triazol-4-yl)phenyl)benzamide Derivatives as Potent Carbonic Anhydrase Inhibitors with Broad-Spectrum Anticancer Activity: Leveraging Tail and Dual-Tail Approaches” (J Med Chem, 2025).

Chains of the proteins cited; added tags and fusions are not shown. Lines headed by an entry give the natural chain unless they say otherwise; changes in a name come on top.
UniProt Q96GD4, whole entry: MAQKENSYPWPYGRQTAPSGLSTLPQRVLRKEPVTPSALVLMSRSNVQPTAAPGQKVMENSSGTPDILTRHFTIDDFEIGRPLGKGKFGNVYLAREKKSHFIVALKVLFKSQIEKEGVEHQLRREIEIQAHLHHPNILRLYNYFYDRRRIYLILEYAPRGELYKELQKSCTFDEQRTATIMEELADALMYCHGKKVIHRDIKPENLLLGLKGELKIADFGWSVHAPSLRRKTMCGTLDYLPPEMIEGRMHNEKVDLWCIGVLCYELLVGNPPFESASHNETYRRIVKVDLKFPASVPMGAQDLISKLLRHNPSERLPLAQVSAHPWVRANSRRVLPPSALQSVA
UniProt P15056, whole entry: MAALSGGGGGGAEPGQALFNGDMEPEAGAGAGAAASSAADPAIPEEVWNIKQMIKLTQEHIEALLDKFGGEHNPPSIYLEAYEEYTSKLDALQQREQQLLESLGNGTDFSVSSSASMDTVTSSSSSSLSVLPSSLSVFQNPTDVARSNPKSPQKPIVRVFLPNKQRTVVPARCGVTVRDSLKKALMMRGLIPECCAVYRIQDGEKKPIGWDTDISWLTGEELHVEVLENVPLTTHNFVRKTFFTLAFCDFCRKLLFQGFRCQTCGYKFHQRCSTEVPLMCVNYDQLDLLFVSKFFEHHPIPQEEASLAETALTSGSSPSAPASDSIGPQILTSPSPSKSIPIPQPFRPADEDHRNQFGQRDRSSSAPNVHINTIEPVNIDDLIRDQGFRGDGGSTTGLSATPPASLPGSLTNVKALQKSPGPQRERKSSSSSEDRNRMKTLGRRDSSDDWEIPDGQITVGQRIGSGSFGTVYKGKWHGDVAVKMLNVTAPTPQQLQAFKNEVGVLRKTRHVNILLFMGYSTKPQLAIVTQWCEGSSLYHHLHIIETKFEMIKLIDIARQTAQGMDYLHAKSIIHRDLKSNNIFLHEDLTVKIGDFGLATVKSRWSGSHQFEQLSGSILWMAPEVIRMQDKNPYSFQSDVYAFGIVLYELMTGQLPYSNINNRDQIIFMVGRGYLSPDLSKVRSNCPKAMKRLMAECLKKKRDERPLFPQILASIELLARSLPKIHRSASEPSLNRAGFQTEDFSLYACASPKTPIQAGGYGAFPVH
UniProt Q08345: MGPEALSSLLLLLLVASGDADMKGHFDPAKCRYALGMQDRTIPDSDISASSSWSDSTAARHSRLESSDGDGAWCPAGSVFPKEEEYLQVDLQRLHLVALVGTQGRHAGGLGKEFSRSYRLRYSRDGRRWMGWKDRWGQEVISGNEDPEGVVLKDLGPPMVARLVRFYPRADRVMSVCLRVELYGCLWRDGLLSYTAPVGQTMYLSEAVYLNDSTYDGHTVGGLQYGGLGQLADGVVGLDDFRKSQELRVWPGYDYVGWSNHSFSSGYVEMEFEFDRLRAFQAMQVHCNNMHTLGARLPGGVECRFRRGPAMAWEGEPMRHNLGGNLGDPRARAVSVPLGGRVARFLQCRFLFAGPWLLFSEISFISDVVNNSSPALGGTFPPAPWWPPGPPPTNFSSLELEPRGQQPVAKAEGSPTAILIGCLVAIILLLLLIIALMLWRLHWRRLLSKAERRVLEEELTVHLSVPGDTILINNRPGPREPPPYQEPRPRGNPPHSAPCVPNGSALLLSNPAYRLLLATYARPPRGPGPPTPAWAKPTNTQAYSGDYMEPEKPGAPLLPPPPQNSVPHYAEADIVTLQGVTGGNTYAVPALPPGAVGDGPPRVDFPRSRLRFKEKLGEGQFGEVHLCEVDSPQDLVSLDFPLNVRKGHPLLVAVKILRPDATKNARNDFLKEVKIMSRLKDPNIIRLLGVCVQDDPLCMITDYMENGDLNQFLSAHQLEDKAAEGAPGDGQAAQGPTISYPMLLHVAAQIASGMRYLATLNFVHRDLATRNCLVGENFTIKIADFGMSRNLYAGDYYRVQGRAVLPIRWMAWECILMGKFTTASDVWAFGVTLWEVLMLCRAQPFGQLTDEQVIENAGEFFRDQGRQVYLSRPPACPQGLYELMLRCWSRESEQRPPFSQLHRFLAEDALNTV
UniProt P36888, whole entry: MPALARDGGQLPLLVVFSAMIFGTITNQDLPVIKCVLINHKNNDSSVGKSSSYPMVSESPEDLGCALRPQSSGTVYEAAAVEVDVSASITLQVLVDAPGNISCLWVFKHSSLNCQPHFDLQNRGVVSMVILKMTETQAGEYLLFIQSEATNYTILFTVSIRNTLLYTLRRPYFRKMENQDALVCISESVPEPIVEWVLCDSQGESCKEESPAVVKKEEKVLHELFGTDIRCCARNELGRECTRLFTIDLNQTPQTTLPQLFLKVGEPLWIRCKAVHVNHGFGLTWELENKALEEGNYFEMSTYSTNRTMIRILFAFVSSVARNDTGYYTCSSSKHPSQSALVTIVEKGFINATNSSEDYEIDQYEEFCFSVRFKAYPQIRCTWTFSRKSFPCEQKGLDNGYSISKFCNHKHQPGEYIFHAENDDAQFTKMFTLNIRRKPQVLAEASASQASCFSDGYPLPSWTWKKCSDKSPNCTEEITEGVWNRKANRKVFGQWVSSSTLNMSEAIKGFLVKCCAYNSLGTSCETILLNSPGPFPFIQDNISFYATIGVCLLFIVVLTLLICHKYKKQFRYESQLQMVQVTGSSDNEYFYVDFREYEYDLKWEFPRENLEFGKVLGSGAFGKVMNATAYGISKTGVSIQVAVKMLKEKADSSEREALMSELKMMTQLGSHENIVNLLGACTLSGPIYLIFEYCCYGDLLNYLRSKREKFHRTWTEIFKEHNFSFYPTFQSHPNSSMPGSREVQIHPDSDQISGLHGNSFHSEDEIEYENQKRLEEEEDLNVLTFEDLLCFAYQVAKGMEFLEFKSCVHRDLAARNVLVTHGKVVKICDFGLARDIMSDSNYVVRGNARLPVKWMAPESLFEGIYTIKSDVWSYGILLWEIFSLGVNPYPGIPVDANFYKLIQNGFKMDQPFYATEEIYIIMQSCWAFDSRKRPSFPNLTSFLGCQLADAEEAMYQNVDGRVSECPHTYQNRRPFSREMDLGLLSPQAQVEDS
UniProt P07333, whole entry: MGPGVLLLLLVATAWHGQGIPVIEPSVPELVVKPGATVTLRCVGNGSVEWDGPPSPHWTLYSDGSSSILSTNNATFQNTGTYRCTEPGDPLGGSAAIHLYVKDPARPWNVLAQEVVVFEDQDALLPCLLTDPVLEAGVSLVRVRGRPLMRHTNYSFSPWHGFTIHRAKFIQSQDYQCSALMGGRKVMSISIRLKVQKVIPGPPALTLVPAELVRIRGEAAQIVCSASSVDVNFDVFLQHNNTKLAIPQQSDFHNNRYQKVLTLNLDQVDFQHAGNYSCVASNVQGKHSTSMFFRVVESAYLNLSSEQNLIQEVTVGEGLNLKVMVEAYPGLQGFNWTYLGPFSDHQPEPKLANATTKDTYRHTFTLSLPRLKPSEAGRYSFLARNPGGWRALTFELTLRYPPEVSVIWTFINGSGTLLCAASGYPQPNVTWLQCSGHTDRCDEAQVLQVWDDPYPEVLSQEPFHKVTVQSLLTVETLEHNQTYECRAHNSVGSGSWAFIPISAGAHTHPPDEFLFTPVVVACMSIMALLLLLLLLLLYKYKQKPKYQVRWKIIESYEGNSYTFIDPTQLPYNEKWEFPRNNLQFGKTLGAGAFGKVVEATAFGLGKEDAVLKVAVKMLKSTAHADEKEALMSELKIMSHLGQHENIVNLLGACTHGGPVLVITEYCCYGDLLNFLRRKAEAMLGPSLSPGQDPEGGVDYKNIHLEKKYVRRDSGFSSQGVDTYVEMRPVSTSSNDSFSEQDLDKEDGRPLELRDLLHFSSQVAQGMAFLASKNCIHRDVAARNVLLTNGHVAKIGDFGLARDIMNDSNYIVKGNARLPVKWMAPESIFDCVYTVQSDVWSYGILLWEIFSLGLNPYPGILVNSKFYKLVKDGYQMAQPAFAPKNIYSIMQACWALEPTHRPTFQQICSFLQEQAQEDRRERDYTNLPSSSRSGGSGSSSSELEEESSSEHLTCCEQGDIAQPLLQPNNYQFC
UniProt P35968, whole entry: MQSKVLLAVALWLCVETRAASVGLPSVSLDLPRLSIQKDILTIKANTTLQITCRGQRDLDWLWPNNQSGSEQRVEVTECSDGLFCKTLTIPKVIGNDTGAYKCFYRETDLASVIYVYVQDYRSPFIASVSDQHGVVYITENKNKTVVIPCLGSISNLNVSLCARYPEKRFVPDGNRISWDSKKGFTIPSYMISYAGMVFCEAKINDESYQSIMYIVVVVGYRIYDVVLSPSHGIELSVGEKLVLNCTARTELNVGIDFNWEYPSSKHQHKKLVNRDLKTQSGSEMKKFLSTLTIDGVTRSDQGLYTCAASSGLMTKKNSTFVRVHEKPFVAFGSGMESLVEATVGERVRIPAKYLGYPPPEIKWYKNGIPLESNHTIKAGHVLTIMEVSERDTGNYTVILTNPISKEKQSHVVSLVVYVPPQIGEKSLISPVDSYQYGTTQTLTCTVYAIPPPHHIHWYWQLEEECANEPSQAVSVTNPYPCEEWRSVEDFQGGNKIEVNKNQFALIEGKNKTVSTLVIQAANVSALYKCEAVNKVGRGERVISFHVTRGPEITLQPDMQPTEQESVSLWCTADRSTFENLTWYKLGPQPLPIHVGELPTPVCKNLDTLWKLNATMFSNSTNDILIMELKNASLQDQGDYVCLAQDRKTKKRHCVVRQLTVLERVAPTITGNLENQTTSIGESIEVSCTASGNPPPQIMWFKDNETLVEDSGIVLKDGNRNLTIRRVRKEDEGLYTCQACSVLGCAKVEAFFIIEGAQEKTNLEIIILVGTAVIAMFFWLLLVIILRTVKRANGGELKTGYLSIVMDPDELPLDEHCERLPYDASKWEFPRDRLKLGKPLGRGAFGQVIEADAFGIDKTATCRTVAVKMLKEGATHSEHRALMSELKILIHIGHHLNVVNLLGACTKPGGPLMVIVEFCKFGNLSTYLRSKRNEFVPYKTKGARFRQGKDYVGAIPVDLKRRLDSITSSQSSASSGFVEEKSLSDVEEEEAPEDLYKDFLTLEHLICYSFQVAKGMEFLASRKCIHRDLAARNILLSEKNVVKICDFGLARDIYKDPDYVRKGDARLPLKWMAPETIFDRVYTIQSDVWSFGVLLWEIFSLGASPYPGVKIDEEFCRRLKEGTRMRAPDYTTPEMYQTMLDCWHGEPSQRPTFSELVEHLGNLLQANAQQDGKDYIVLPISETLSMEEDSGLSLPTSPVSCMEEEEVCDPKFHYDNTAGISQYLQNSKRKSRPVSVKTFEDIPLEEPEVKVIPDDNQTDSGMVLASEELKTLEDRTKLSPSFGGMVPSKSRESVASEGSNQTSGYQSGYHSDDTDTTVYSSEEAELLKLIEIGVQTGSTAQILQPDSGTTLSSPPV
UniProt P27986: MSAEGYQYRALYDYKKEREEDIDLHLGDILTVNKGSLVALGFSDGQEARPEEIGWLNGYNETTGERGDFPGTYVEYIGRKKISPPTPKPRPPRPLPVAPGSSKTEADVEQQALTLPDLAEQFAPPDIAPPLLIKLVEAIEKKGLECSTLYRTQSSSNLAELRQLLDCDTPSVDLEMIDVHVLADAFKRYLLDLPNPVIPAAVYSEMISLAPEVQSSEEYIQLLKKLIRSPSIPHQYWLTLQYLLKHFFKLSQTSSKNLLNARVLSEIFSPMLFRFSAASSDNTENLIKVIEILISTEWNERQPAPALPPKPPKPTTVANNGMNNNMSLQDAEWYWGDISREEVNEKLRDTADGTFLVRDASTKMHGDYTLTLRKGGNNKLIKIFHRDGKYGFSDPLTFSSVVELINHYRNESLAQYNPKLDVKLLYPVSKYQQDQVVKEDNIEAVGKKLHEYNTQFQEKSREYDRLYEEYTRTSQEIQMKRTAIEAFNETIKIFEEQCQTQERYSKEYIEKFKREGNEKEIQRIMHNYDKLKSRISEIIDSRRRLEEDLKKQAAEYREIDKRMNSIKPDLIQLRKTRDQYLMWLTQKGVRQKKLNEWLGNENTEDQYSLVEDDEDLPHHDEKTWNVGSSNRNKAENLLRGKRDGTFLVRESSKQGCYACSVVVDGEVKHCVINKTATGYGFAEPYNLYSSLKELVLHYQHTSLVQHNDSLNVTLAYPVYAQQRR

Columns and labels:
[1] = target: T1, Aurora kinase A (Homo sapiens) (UniProt O14965); experiment: Inhibition of human Aurora A using [H-LRRASLG] as substrate at 10 uM incubated for 40 min by Kinase HotSpotSM based scintillation counting assay
T1 sequence (whole entry): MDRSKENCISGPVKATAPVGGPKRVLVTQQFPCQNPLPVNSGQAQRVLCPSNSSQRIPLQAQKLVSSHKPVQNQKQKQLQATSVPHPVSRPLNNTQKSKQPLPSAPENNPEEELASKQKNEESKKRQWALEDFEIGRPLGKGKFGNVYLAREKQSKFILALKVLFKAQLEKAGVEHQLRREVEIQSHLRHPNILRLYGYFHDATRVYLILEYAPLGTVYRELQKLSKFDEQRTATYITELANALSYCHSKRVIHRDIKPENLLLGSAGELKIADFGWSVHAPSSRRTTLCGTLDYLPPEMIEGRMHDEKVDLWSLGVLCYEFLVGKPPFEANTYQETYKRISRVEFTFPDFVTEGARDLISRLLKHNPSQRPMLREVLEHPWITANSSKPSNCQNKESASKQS

[2] = target: Aurora kinase B (Homo sapiens) (UniProt Q96GD4); experiment: Inhibition of human Aurora B using [H-LRRASLG] as substrate at 10 uM incubated for 40 min by Kinase HotSpotSM based scintillation counting assay
[3] = target: Serine/threonine-protein kinase B-raf (Homo sapiens) (UniProt P15056); experiment: Inhibition of human BRAF using MEK1-K97M as substrate at 10 uM incubated for 40 min by Kinase HotSpotSM based scintillation counting assay
[4] = target: Epithelial discoidin domain-containing receptor 1 (Homo sapiens) (UniProt Q08345); experiment: Inhibition of human DDR1 using [KKSRGDYMTMQIG] as substrate at 10 uM incubated for 40 min by Kinase HotSpotSM based scintillation counting assay
[5] = target: Receptor-type tyrosine-protein kinase FLT3 (Homo sapiens) (UniProt P36888); experiment: Inhibition of human FLT3 using [EAIYAAPFAKKK] as substrate at 10 uM incubated for 40 min by Kinase HotSpotSM based scintillation counting assay
[6] = target: Macrophage colony-stimulating factor 1 receptor (Homo sapiens) (UniProt P07333); experiment: Inhibition of human FMS using poly[Glu:Tyr] as substrate at 10 uM incubated for 40 min by Kinase HotSpotSM based scintillation counting assay
[7] = target: Vascular endothelial growth factor receptor 2 (Homo sapiens) (UniProt P35968); experiment: Inhibition of human KDR/VEGFR2 using poly[Glu:Tyr] as substrate at 10 uM incubated for 40 min by Kinase HotSpotSM based scintillation counting assay
[8] = target: RAF proto-oncogene serine/threonine-protein kinase (Homo sapiens) (UniProt P04049); experiment: Inhibition of human RAF1 using MEK1 (K97R) as substrate at 10 uM incubated for 40 min by Kinase HotSpotSM based scintillation counting assay
[9] = target: PI3-kinase p110-alpha/p85-alpha (Homo sapiens) (UniProt P27986+P42336); experiment: Inhibition of human PI3Kb (p110a/p85a) using PI(4,5)P2:PS as substrate at 10 uM incubated for 40 min by Kinase HotSpotSM based scintillation counting assay; assay type: protein-complex assay

inhibition [1]: 8.1%
inhibition [2]: 13.4%
inhibition [3]: -9.8%
inhibition [4]: -4.7%
inhibition [5]: 2.3%
inhibition [6]: 16.2%
inhibition [7]: 1.1%
inhibition [8]: 5.5%
inhibition [9]: 13%
Compound: NS(=O)(=O)c1ccc(-n2cc(-c3cccc(NC(=O)c4ccc(Cl)c(C(F)(F)F)c4)c3)nn2)cc1
